Assay results: ChEMBL document CHEMBL2029225, “Synthesis of marine-derived 3-alkylpyridinium alkaloids with potent antiprotozoal activity” (ACS Med Chem Lett, 2011)

Tested on: HEK-293T
Experiment: Cytotoxicity against human HEK293T cells after 72 hrs by alamar blue assay
Format: cell-based

O=[As]c1ccccc1 (stereo unspecified)
EC50: 6.4 µM
